# Assay results reported in paper PMC8876255 (Bioorganic & medicinal chemistry letters, 2021).
# System: MDA-MB-231 cells
# Assay: Cancer cell viability assay
# Assay type: cell-based
# Settings: relative to JMS-053, MDA-MB-231
compound,measurement,value
N=C1C(=O)NC(=O)c2cc(-c3ccc(OCCCCNC(=O)CC45CC6CC(CC(C6)C4)C5)cc3)sc21 [Compound 7a],fold increase in cytotoxicity in a breast cancer cell line,ca. 5 fold
